# This is a selection; strong and weak results do not stand in their true shares. Active and inactive are the calls of the source.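 How the source made its calls: active means mean percent inhibition of the KCNQ2 thallium signal more than 5 SD above the buffer-only control wells; inactive means the rest.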
# By UniProt entry, the sequences of proteins in these tests, tags left out.
# UniProt O88943, whole entry, looked up: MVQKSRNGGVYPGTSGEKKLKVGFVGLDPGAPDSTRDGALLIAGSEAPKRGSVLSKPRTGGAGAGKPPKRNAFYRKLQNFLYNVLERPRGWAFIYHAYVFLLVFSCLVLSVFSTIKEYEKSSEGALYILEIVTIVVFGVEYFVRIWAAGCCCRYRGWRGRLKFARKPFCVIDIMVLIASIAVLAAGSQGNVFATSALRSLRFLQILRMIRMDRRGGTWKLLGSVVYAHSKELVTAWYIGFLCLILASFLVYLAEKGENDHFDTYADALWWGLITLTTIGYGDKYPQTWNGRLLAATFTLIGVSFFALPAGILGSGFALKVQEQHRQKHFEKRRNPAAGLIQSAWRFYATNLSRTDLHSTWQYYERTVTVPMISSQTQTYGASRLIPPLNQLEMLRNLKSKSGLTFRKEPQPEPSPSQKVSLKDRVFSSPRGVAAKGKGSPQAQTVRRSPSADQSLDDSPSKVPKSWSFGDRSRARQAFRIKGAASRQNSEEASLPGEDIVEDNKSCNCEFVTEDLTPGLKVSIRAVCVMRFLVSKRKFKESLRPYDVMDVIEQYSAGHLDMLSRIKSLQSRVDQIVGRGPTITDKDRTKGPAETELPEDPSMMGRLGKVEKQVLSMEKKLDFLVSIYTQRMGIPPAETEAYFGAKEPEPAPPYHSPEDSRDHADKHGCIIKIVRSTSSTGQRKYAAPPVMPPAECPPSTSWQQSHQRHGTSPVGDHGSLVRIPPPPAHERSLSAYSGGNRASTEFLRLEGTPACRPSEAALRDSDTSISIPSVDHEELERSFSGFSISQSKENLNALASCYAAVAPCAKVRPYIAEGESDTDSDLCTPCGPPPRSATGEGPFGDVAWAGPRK
# Target: Potassium voltage-gated channel subfamily KQT member 2 (Rattus norvegicus) (UniProt O88943)
# Assay: block of rat KCNQ2 potassium channel – cell-based, selectivity assay for KCNQ1 inhibitor project (AID 651746);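 further: KCNQ2 expressed in CHO cells; 0% = buffer control wells and 100% = XE-991 inhibitor control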
# Settings: KCNQ2 cells, FluxOR thallium flux fluorescence; at 10 µM; active compounds read high
row,Structure (SMILES),inhibition
1,CCC1=CC2Cc3nc4ccc(Cl)cc4c(N)c3C(C1)C2 (configuration not stated),active: 68.3%
2,COc1cc(C(=O)NCC2(N3CCOCC3)CCCCC2)cc(Cl)c1OC(C)C,active: 79.7%

# — PubChem BioAssay AID651746 (Johns Hopkins Ion Channel Center, 2012)
